Results taken from US9879008B2, “2,3,4,6-tetra-substituted benzene-1,5-diamine derivatives, preparation method therefor and medicinal use thereof” (SHANGHAI HAIYAN PHARMACEUTICAL TECHNOLOGY CO., LTD., priority 2014, dated 2018).
Read-outs that look alike come from different tables or passages of the source.

The chains behind the UniProt entries cited, without tags or fusion partners. Residues count along the entry.
UniProt P00533, 25-1210 limits assumed: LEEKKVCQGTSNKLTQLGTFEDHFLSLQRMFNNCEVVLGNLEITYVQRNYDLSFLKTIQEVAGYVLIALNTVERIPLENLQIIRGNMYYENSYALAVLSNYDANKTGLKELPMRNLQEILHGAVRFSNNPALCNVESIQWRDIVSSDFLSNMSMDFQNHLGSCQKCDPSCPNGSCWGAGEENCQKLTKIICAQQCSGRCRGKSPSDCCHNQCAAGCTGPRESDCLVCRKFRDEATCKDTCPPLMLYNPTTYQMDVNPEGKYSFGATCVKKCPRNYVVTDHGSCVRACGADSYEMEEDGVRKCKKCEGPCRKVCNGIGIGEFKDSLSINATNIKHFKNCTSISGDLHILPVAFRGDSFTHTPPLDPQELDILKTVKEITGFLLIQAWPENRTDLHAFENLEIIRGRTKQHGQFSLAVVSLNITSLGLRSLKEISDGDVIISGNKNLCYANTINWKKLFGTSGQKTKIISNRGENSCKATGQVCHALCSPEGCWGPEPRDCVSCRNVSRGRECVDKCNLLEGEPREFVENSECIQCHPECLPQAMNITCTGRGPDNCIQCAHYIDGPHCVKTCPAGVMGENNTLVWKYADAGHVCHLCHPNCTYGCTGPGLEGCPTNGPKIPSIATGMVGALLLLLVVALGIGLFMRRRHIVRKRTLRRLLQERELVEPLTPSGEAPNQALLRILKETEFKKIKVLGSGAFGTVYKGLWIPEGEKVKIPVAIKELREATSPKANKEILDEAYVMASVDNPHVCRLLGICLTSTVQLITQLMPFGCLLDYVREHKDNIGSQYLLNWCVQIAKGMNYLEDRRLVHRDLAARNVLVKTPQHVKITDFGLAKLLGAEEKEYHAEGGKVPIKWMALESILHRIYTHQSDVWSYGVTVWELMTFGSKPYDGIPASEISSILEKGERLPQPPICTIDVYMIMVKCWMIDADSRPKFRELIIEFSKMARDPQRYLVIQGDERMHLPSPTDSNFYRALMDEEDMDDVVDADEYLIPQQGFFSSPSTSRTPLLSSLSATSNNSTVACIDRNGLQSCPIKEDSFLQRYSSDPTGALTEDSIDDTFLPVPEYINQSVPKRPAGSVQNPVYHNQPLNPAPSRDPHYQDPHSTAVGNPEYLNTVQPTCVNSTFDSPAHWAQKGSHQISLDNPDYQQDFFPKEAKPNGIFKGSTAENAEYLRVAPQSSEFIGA

What was measured:
[1] = system: A431 cell; assay: MTT cytostatic activity, A431 cell; assay type: cell-based
[2] = Pharmacokinetics in vivo in rats (LC/MS/MS plasma concentration); design: species or system SD rats; settings: rat; intravenous 1 mg/kg, intragastric 20 mg/kg (route per parameter not given); tested form: formate
[3] = system: A431 cells; assay: ELISA assay for cell activity, EGF-treated A431 cells; assay type: cell-based;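 further: Serum-starved A431 cells, ELISA on lysates read as OD450 minus OD570, inhibition scaled between EGF-stimulated wells (0%) and unstimulated cell control (100%), DMSO 0.5% final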
[4] = Pharmacokinetics in vivo in mice (LC/MS/MS plasma concentration); design: species or system CD1 mice; settings: intravenous 1 mg/kg, intragastric 5 mg/kg (route per parameter not given), tested form: formate
[5] = system: NIH3T3 cell; assay: MTT cytotoxicity against NIH3T3 cells
[6] = molecular target: wild-type EGFR kinase (Homo sapiens, UniProt P00533); assay: z-lyte inhibition test against wild-type EGFR kinase; assay type: biochemical; settings: read-out: EGFR WT (IC50/nM), 10 μM ATP;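 further: reaction volume 10 µL holding 0.8 ng/µL enzyme and 2 µM Tyr04 substrate, with DMSO at 2% once compounds are present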

Row | Structure (SMILES) | IC50 ([1]; read-out: A431 cell (IC50/nM), 72 h, tested form: formate) [nM] | Area under the curve AUC [2] [ng·h/mL] | Clearance CL [2] [mL/min/kg] | Half-life T1/2 [2] [h] | IC50 ([3]; read-out: A431 cell (IC50/nM), compound 1 h, then EGF 45 min, tested form: formate) [nM] | Area under the curve AUC [4] [ng·h/mL] | Clearance CL [4] [mL/min/kg] | Half-life T1/2 [4] [h] | IC50 ([5]; read-out: MTT assay against NIH3T3 cell (IC50/nM), 72 h, tested form: formate) [nM] | IC50 ([1]; read-out: A431 cell (IC50/nM), 72 h) [nM] | IC50 [6] [nM] | IC50 ([3]; read-out: A431 cell (IC50/nM), compound 1 h, then EGF 45 min) [nM] | IC50 ([5]; read-out: MTT assay against NIH3T3 cell (IC50/nM), 72 h) [nM]
1 | C=CC(=O)Nc1cc(Nc2ncc(Cl)c(OC3CN(S(C)(=O)=O)C3)n2)c(OC)cc1N1CCC(N(C)C)CC1 | 814 | 2619 | 56.5 | 3.84 | 715 | 605 | 57.9 | 3.82 | > 10000 | – | – | – | –
2 | C=CC(=O)Nc1cc(Nc2ncc(Cl)c(SC3CN(C(C)=O)C3)n2)c(OC)cc1N1CCC(N(C)C)CC1 | – | – | – | – | – | – | – | – | – | 3950 | 176 | 1470 | 9040
